Experimental data: US9090621B2, “Tyrosine kinase inhibitors” (Principia Biopharma Inc., priority 2013, dated 2015)

Amino acid sequences for entries named in this document (tags omitted). A change or cut given only in a name is not applied to a line headed by its entry.
UniProt Q06187: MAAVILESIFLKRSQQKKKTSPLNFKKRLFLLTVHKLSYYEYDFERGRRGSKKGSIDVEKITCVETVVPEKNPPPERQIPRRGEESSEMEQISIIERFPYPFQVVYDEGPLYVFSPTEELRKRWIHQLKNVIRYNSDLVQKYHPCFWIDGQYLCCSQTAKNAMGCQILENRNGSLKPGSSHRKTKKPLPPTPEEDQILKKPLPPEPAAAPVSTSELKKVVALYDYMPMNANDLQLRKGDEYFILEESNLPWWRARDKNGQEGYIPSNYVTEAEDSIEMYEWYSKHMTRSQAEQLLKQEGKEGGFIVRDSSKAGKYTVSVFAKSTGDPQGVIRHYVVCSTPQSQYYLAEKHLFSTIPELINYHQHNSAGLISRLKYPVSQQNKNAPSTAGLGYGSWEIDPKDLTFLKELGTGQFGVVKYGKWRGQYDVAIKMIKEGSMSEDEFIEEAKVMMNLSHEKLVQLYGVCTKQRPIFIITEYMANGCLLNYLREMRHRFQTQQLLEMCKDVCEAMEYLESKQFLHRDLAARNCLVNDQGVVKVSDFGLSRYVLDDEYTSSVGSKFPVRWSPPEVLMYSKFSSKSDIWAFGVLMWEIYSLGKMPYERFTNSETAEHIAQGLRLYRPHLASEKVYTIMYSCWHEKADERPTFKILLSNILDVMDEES

Target: human recombinant Btk (Homo sapiens (Human), UniProt Q06187)
Assay: biochemical
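Note: Read-out is the quantity of phosphorylated substrate product formed, and IC50 reflects inhibition of Btk kinase activity.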

IC50: 3 nM
SMILES: CC(C)C=C(C#N)C(=O)N[C@@H](C)Cn1nc(-c2ccc(Oc3ccccc3)cc2F)c2c(N)ncnc21 [Example 183B, (S)-N-(1-(4-amino-3-(2-fluoro-4-phenoxyphenyl)-1H-pyrazolo[3,4-d]pyrimidin-1-yl)propan-2-yl)-2-cyano-4-methylpent-2-enamide]
